In US20240024233A1, “Oral Hydrogel Compositions and Uses” (Colgate-Palmolive Company, priority 2020, published 2024):

Assay: Sustained release of entrapped agent (FD&C Blue 1 dye) from gel
Format: physicochemical
Details: entrained in the gel at 2% to 10% w/w

zinc salicylate
release from the gel: steady release over a six-hour period
